Patent publication US20130231292A1, “Synergistic anti-proliferation activity of TAS-108 with mTOR inhibitors against cancer cells” (priority 2012, published 2013)

Experiments:
T-47D = experiment: Combination screen of TAS-108 with a second compound, CellTiter-Glo; conditions: in combination with TAS-108
MDA-MB-468 = experiment: as above; conditions: MDA-MB-468, in combination with TAS-108
MCF7 = experiment: as above; conditions: MCF7, in combination with TAS-108
MDA-MB-231 = experiment: as above; conditions: MDA-MB-231, in combination with TAS-108
HS 578T = experiment: as above; conditions: in combination with TAS-108
BT-549 = experiment: as above; format: cell-based, human
[1] = system: human mammary carcinoma cell lines; experiment: Combination screen of TAS-108 with a second compound, all six breast lines; conditions: number of the six breast cell lines with synergy, in combination with TAS-108
[2] = system: 60 cancer cell lines of different tissues of origin; experiment: Non-bias 5x4 checkerboard combination screen of TAS108 with 30 chemotherapeutic agents

SMILES | Synergistic effect of TAS 108 paired with compound (T-47D) | Synergistic effect of TAS 108 paired with compound (MCF7) | ES: synergistic effect size [2] | other results
C#Cc1cccc(Nc2ncnc3cc(OCCOC)c(OCCOC)cc23)c1 [Erlotinib] | N | N |  | Synergistic effect of TAS 108 paired with compound (MDA-MB-468): N; Synergistic effect of TAS 108 paired with compound (MDA-MB-231): N; Synergistic effect of TAS 108 paired with compound (HS 578T): N
CCN(CC)CCNC(=O)c1c(C)[nH]c(/C=C2\C(=O)Nc3ccc(F)cc32)c1C [Sunitinib] | N | N |  | Synergistic effect of TAS 108 paired with compound (MDA-MB-468): N; Synergistic effect of TAS 108 paired with compound (BT-549): N; Synergy # [1]: 0; Synergistic effect of TAS 108 paired with compound (MDA-MB-231): N
Nc1nc(Cl)nc2c1ncn2[C@H]1C[C@H](O)[C@@H](CO)O1 [Cladribine] |  |  | −0.018 | 
CS(=O)(=O)CCNCc1ccc(-c2ccc3ncnc(Nc4ccc(OCc5cccc(F)c5)c(Cl)c4)c3c2)o1 [Lapatinib] | N | N |  | Synergy # [1]: 0
Cc1nc(Nc2ncc(C(=O)Nc3c(C)cccc3Cl)s2)cc(N2CCN(CCO)CC2)n1 [Dasatinib] |  |  | 0.022 | 
Nc1nc(Cl)nc2c1ncn2[C@@H]1O[C@H](CO)[C@@H](O)[C@@H]1F [Clofarabine] |  |  | 0.009 | 
CC1=C(/C=C/C(C)=C/C=C/C(C)=C/C(=O)O)C(C)(C)CCC1 [Tretinoin] |  |  | 0 | 
COc1nc(N)nc2c1ncn2[C@@H]1O[C@H](CO)[C@@H](O)[C@@H]1O [Nelarabine] |  |  | −0.003 | 
